By UniProt entry, the sequences of proteins in these tests, tags left out.
UniProt P50406, whole entry: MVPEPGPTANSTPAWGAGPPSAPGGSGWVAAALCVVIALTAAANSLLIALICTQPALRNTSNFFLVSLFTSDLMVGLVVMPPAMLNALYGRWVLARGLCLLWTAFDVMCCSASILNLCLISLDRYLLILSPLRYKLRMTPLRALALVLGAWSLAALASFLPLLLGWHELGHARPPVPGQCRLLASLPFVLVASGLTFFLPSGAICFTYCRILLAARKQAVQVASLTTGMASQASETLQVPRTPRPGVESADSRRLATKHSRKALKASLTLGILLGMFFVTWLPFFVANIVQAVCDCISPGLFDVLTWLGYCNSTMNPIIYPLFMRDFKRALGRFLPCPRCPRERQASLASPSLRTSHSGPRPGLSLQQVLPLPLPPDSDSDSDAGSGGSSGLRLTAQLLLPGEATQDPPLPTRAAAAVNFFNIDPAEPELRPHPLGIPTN

According to US7220756B2, “N-sulfonylheterocyclopyrrolyl-alkylamine compounds as 5-hydroxytryptamine-6 ligands” (Wyeth, priority 2003, dated 2007):

Molecular target: human cloned 5-HT6 receptors (Homo sapiens, UniProt P50406)
Assay: 5-HT6 binding affinity, [3H]-LSD displacement
Settings: read-out: 5-HT6 Binding Ki; membranes of Hela cells expressing human cloned 5-HT6 receptors; [3H]-LSD 3.0 nM; 120 min, room temperature

Row | SMILES | Ki
1 | CN(C)CCc1cn(S(=O)(=O)c2ccc3ccccc3c2)c2ccsc12 | 3.9 nM
2 | CN(C)CCc1cn(S(=O)(=O)c2ccccc2Cl)c2ccsc12 | 1.9 nM
3 | CN(C)CCc1cn(S(=O)(=O)c2ccc(Cl)s2)c2ccsc12 | 1.6 nM
4 | CN(C)CCc1cn(S(=O)(=O)c2cnc3sccn23)c2ccsc12 | 0.3 nM
5 | CN(C)CCc1cn(S(=O)(=O)c2cccc(Cl)c2)c2ccsc12 | 1.3 nM
